Experiments:
[1] = system: ME180, a squamous cell carcinoma; assay: growth of ME180 tumor cells (cell number); assay type: cell-based, human
[2] = system: RPMI18226, a multiple myeloma; assay: growth of RPMI18226 tumor cells (cell number, semi-solid medium); assay type: cell-based, human; settings: cell number and growth in semi-solid medium

**Q.** Which results are given for “Interferonα2b: Interferon, a compound which affects cellular proliferation”?
**A.** cell growth [1]: inhibit cell growth in a concentration-dependent manner; cell growth [2]: inhibit cell growth in a concentration-dependent manner

From patent US6043279A, “Compounds having selective activity for retinoid X receptors, and means for modulation of processes mediated by retinoid X receptors” (priority 1997, dated 2000)
